Bioassay records deposited in PubChem BioAssay by Broad Institute.
Only some compounds are listed: those with a hit (about 1.6% of all), similar ones and a draw of the others.
Vif imaging – inhibitors of HIV Vif; HEK293T cells, Vif self-association by quenched fluorescence, imaging, 24 h; inhibition, % at 7.49 µM; hit rate 0.35% among 340,000; AID 602346; in the data active = inhibition above about 50%, passing the limit was not always enough
PglD inh – inhibitors of Campylobacter jejuni PglD acetyltransferase; purified PglD enzyme, DTNB colorimetric CoA detection; inhibition, % at 12.5 µM; hit rate 0.098% among 360,000; AID 602405; in the data active = inhibition above about 16%, passing the limit was not always enough
CAL PDZ FP-1 – blocks peptide binding to human CAL PDZ domain; Q9HD26; purified CAL PDZ, TMR-peptide fluorescence polarization, 1 h; inhibition, % at 20 µM; hit rate 0.02% among 330,000; AID 504414;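 active = highest replicate inhibition of at least 40%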;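 note: plate controls were DMSO neutral control wells for no effect and unlabeled competitor peptide control wells for full effect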
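Read-out basis: mP drop reported as inhibition | Assay system: Tagged CAL PDZ protein CerCALP, purified | Benchmarks: Unlabelled peptide for full inhibition, DMSO wells as neutral | Schedule: 1 h incubation at room temperature before polarization reading | Buffer or medium: Sodium phosphate/NaCl buffer pH 7.4 with TCEP, IgG, Thesit | Doses: Single point, 20 µM | Measured by: Fluorescence polarization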
CAL PDZ FP-2 – CAL PDZ (human) peptide binding inhibition | Q9HD26 | inhibition, % at 24.9 µM | purified CAL PDZ, TMR-peptide fluorescence polarization, 1 h | hit rate 0.92% among 300,000;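 active = mean inhibition of at least 30% with at least half of replicates also reaching 30%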;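 note: 0% = DMSO neutral control and 100% = excess unlabeled competitor peptide PRC23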
UUG fidelity – modulators of start codon recognition fidelity in yeast; AID 602363; activity score, % at 18.7 µM; S. cerevisiae UUG-firefly luciferase reporter, luminescence/redox ratio; 0.13% of 350,000 active;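 active = replicate mean at a twofold rise or more, about +100% in these data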;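 note: firefly luciferase made from a UUG start codon reports start codon fidelity; reporter light over untreated wells divided by growth signal over untreated wells; some hits fall short of that in this replicate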
ARNT TACC3 PPI – disruptors of human ARNT/TACC3 interaction; Q9Y6A5; AlphaScreen His-ARNT PAS-B/GST-TACC3 binding, luminescence; TACC3 fragment carries E629A point mutation; inhibition, % at 9.99 µM; hit rate 0.66% among 390,000;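 active = mean inhibition of replicates at least 50% and at least half of replicates each reaching 50%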;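 note: 0% = complete ARNT plus TACC3 wells and 100% = ARNT alone without TACC3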
Numbers without * were called inactive; nt = no result given.

SMILES | Vif imaging | PglD inh | CAL PDZ FP-1 | CAL PDZ FP-2 | UUG fidelity | ARNT TACC3 PPI
C[C@H]1CN([C@@H](C)CO)C(=O)c2cccc(NC(=O)Nc3ccccc3)c2O[C@H]1CN(C)Cc1ccc(Cl)c(Cl)c1 | nt | 2 | nt | nt | 5 | -1
CC(C)C#Cc1ccc2c(c1)O[C@H](CN(C)Cc1cncnc1)[C@H](C)CN([C@@H](C)CO)S2(=O)=O | nt | -1 | nt | nt | -13 | -14
CC(C)CC(C(=O)Oc1ccc2c3c(c(=O)oc2c1)CCC3)N1C(=O)c2ccccc2C1=O (stereo not drawn) | 19 | 0 | nt | -1 | 5 | 47*
COc1ccc(S(=O)(=O)NCC(=O)N(CC(=O)NCc2ccccc2)Cc2ccco2)cc1 | 19 | 6 | 0 | -1 | -9 | -19
COc1ccc(CNC(=O)C(c2ccco2)N(C(=O)CNS(=O)(=O)c2ccccc2)c2ccccc2C)cc1 (stereo not drawn) | -18 | -5 | -1 | 92* | 9 | 0
C[C@@H]1CCCCO[C@@H](CN(C)S(=O)(=O)c2cn(C)cn2)[C@@H](C)CN([C@H](C)CO)C(=O)c2cc(NC(=O)Nc3ccc(F)cc3)ccc2O1 | nt | -5 | nt | nt | -1 | -9
C[C@H]1CCCCO[C@H](CN(C)C(=O)Nc2ccc(F)cc2)[C@@H](C)CN([C@@H](C)CO)C(=O)c2cc(NC(=O)Nc3cccc4ccccc34)ccc2O1 | nt | -1 | nt | nt | -15 | 2
COc1cccc(C(=O)Nc2ccc3c(c2)C(=O)N(C)[C@@H]2CC[C@@H](CC(=O)NCc4ccccc4F)O[C@@H]2CO3)c1 | nt | 3 | nt | nt | 3 | 14
Nc1ccc(-c2c3ccc(=O)cc-3oc3cc(O)ccc23)c(C(=O)O)c1 | 73* | -1 | 0 | nt | -10 | 6
O=C([C@H]1[C@H](CO)[C@H]2Cn3c(cccc3=O)[C@H]2N1CCC(F)(F)F)N1CCCCC1 | nt | -1 | nt | nt | nt | active
O=Nc1c(O)[nH]c2ccc(Cl)c(Cl)c12 | 7 | -1 | -2 | -4 | 6 | 59*
Cc1nn(C)cc1NC(=O)C[C@H]1CC[C@H]2[C@H](COc3ccc(NC(=O)Nc4cccc(Cl)c4)cc3C(=O)N2C)O1 | nt | 0 | nt | nt | -13 | 8
CC(C)C(C(=O)Nc1ncn[nH]1)N1C(=O)c2ccccc2C1=O (stereo not drawn) | 0 | 4 | 0 | 1 | 5 | 36*
Cc1cc(N2CCN(c3ccccc3)CC2)nc2ccccc12 | 6 | 3 | nt | 62* | -16 | -2
COc1ccc(N2CCN(c3cc(C)c4ccccc4n3)CC2)cc1 | -5 | -1 | -1 | 5 | -4 | 29

Structures listed so far with sulfur:
SMILES | Vif imaging | PglD inh | CAL PDZ FP-1 | CAL PDZ FP-2 | UUG fidelity | ARNT TACC3 PPI
CC(C)C#Cc1ccc2c(c1)O[C@H](CN(C)Cc1cncnc1)[C@H](C)CN([C@@H](C)CO)S2(=O)=O | nt | -1 | nt | nt | -13 | -14
COc1ccc(S(=O)(=O)NCC(=O)N(CC(=O)NCc2ccccc2)Cc2ccco2)cc1 | 19 | 6 | 0 | -1 | -9 | -19
COc1ccc(CNC(=O)C(c2ccco2)N(C(=O)CNS(=O)(=O)c2ccccc2)c2ccccc2C)cc1 (stereo not drawn) | -18 | -5 | -1 | 92* | 9 | 0
C[C@@H]1CCCCO[C@@H](CN(C)S(=O)(=O)c2cn(C)cn2)[C@@H](C)CN([C@H](C)CO)C(=O)c2cc(NC(=O)Nc3ccc(F)cc3)ccc2O1 | nt | -5 | nt | nt | -1 | -9

More entries follow:
SMILES | Vif imaging | PglD inh | CAL PDZ FP-1 | CAL PDZ FP-2 | UUG fidelity | ARNT TACC3 PPI
CNC[C@H]1Oc2ccc(NC(=O)Nc3ccc4c(c3)OCO4)cc2CC(=O)N([C@H](C)CO)C[C@@H]1C | nt | -2 | nt | nt | 20 | -4
Cc1nc(C)c(C(=O)C2=C(O)C(=O)N(CCN3CCOCC3)C2c2ccco2)s1 (stereo not drawn) | 0 | 1 | -1 | -1 | -6 | 49*
O=C(CSc1ccccc1)N1CCCC(Nc2ccccc2)C1 (stereo not drawn) | -4 | -4 | 1 | 61* | -4 | 0
O=C(CSc1ccccn1)N1CCCC(Nc2ccccc2)C1 (stereo not drawn) | 0 | -2 | 0 | nt | -1 | 1
CCCCC(=O)Nc1ccc(N2CCN(C(=O)CC)CC2)cc1 | -2 | -3 | 0 | nt | -15 | -10
CCc1ccccc1OCC(=O)Nc1ccc(F)c(S(=O)(=O)N2CCOCC2)c1 | 5 | nt | 0 | 31* | nt | nt
Cc1ccc(NC(=O)Cc2ccccc2)cc1S(=O)(=O)N1CCOCC1 | 0 | -6 | 0 | 30* | -9 | -4
O=C(Cc1ccccc1)Nc1ccc(N2CCOCC2)cc1 | 59* | nt | -2 | -2 | nt | -1
COc1ccc(CC(=O)Nc2ccc(F)c(S(=O)(=O)N3CCOCC3)c2)cc1 | 11 | -1 | -1 | nt | 1 | 5
CCCC(=O)Nc1ccc(N2CCN(C(=O)CCC)CC2)cc1 | 12 | -2 | -1 | 39* | -3 | -1
CC=Cc1ccc2n(c1=O)C[C@@H]1[C@@H](CO)[C@H](C(=O)NCC(F)(F)F)N(CC3CC3)[C@H]21 (mixture of isomers) | nt | -2 | nt | nt | nt | -2
CC(C)(C)c1ccc(C(=O)NC(=S)Nc2ccc(N3CCOCC3)cc2)cc1 | 0 | nt | 1 | 33* | nt | -11
CC(C)CN(C(=O)c1cccc([N+](=O)[O-])c1)c1c(N)n(CC(C)C)c(=O)[nH]c1=O | 56* | -1 | -3 | -5 | -18 | -7
CC(C)CN(C(=O)c1cccc(F)c1)c1c(N)n(CC(C)C)c(=O)[nH]c1=O | 33 | 4 | 0 | -4 | -7 | -1
O=C1C(Cl)=C(NCCN2CCOCC2)C(=O)c2ccccc21 | 8 | -4 | 0 | 0 | 5 | 66*

Complete entries as entered above. Order of screens: Vif imaging, PglD inh, CAL PDZ FP-1, CAL PDZ FP-2, UUG fidelity, ARNT TACC3 PPI
Cc1ccc(NC(=O)Cc2ccccc2)cc1S(=O)(=O)N1CCOCC1 reads 0, -6, 0, 30*, -9, -4
CC(C)CN(C(=O)c1cccc([N+](=O)[O-])c1)c1c(N)n(CC(C)C)c(=O)[nH]c1=O reads 56*, -1, -3, -5, -18, -7

Other records:
SMILES | Vif imaging | PglD inh | CAL PDZ FP-1 | CAL PDZ FP-2 | UUG fidelity | ARNT TACC3 PPI
O=C1C(Cl)=C(NCCCN2CCOCC2)C(=O)c2ccccc21 | 13 | 3 | 0 | -4 | 3 | 15
Cc1nonc1C(=O)N/N=C/c1ccncc1 | -21 | 6 | -1 | 2 | -7 | -3
Cc1c(C(=O)N/N=C/c2ccncc2)no[n+]1[O-] | 3 | 2 | -1 | nt | -7 | 69*
O=S(=O)(Cc1ccccc1)N=Nc1c(O)[nH]c2ccc(Br)cc12 | 4 | 0 | 0 | 82* | -11 | 3
CCc1nnc(NC(=O)CN2CCN(Cc3ccccc3C)CC2)s1 | -1 | 0 | 1 | 0 | -15 | 1
CCc1nnc(NC(=O)CN2CCN(c3ccccc3F)CC2)s1 | -4 | nt | 0 | 41* | nt | -6
O=C(C[C@H]1C=C[C@@H](NC(=O)Nc2ccccc2F)[C@H](CO)O1)NCc1ccc(F)cc1 | nt | -4 | nt | nt | -11 | -6
COc1ccccc1C#Cc1cnc2c(c1)C(=O)N([C@@H](C)CO)C[C@H](C)[C@H](CN(C)C(C)=O)O2 | nt | 3 | nt | nt | 4 | -1
COC(=O)CCc1c(C)nc(N)[nH]c1=O | -16 | 2 | 1 | -1 | -16 | -6
Cc1nc(N)[nH]c(=O)c1CC(=O)OCCCl | 2 | -2 | 0 | 56* | 2 | -6
C=C(C(=O)c1ccccc1)C(C)C(=C)C(=O)c1ccccc1 | 67* | nt | -2 | -3 | nt | -4
C=C(C(=O)c1ccccc1)C(c1ccccc1)C(C)C(=O)c1ccccc1 (stereo not drawn) | 2 | nt | -2 | 0 | nt | -2
CO[C@@H]1CN(C)C(=O)c2ccc(NS(C)(=O)=O)cc2OC[C@@H](C)NC[C@@H]1C | nt | 4 | nt | nt | -23 | -6
COc1ccc(OC)c(NC(=O)c2ccc(OC3CSC3)cc2)c1 | -3 | -1 | 28 | 55* | -5 | -1
O=C(CSc1nnc(C2CC2)n1Cc1ccccc1)N1CCN(S(=O)(=O)c2ccccc2)CC1 | 11 | 0 | 1 | 42* | -2 | -2
CSc1nc(NCCOCCO)c2sc3nc(-c4ccco4)c4c(c3c2n1)CCC4 | -13 | 6 | 0 | 66* | -13 | -32
